Earlier results in paper PMC3602246 (BMC Pharmacology & Toxicology, 2013).
pKi: −log10 of the molar value.

Tested on: MOR
Details: read-out: Ki, affinity binding to the MOR; literature values, one reference per ligand; ref Reference column of Table S1; cited from earlier work

For `CN(C(=O)Cc1ccc(Cl)c(Cl)c1)[C@H](CN1CCCC1)c1ccccc1` [ICI 199,441], the pKi is given as 5.35.
